{
  "sequences": {"note": "Sequences of proteins named here, by UniProt entry; tags and fusion partners are left off.", "UniProt O15054, whole entry": "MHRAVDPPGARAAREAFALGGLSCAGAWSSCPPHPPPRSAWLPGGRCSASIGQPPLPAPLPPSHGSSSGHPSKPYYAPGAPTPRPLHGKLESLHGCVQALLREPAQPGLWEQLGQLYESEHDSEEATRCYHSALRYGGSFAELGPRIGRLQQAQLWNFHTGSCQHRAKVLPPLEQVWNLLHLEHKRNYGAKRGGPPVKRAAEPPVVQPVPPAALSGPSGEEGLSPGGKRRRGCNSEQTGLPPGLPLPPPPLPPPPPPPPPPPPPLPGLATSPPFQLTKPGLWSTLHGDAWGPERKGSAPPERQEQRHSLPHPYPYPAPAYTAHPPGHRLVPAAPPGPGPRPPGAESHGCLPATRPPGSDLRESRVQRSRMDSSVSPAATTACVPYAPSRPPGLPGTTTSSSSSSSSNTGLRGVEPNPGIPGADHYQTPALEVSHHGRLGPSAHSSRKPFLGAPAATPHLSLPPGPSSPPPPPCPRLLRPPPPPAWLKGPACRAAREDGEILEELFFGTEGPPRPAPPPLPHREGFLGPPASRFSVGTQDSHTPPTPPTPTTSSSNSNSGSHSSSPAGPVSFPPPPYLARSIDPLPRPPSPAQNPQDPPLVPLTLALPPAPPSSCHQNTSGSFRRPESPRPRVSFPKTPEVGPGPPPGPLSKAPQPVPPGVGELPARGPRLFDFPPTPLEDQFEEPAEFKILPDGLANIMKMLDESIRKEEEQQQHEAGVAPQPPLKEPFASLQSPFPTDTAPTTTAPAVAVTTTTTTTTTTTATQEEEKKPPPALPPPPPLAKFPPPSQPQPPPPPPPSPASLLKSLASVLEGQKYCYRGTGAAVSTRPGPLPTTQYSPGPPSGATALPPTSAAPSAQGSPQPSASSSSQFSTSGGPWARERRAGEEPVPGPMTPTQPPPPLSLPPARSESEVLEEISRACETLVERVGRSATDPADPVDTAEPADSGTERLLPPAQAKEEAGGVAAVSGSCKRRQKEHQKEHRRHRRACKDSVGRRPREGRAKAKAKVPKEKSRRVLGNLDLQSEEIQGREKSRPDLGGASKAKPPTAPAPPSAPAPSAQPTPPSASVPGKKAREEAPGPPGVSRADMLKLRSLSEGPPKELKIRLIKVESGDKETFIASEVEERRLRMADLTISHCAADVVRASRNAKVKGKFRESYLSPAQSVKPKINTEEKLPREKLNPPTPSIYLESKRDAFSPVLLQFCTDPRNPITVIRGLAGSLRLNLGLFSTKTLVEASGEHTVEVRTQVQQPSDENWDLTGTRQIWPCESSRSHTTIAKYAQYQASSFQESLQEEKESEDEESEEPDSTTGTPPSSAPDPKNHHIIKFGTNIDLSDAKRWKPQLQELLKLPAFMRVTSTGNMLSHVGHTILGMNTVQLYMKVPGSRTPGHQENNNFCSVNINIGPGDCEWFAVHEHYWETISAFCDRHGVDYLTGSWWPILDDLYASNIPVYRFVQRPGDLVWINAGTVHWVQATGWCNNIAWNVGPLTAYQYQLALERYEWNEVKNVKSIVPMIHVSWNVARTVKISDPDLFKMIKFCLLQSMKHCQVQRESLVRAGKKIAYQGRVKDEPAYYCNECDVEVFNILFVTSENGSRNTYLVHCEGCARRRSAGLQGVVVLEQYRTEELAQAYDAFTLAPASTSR"},
  "source": "paper PMC5361737",
  "about": "“Potent and Selective KDM5 Inhibitor Stops Cellular Demethylation of H3K4me3 at Transcription Start Sites and Proliferation of MM1S Myeloma Cells” (Cell Chemical Biology, 2017)",
  "biological_target": "KDM6B (Homo sapiens, UniProt O15054)",
  "assay": "2-Oxoglutarate oxygenase assay panel, AlphaScreen assay",
  "data": [
    {"smiles": "O.O=C(O)C(F)(F)F.O=C(O)C(F)(F)F.O=C(O)c1ccnc(CN2CCNCC2)c1", "note": "[KDOAM-1]", "values": [
      {"measurement": "IC50", "result": "> 100", "unit": "µM"}
    ]}
  ]
}
